Measured values: BindingDB's records for 10.1016/S0960-894X(00)80510-7

The chains behind the UniProt entries cited, without tags or fusion partners. Where a name states a change or a piece, a line headed by the entry shows the natural chain unless it says otherwise.
UniProt P07639: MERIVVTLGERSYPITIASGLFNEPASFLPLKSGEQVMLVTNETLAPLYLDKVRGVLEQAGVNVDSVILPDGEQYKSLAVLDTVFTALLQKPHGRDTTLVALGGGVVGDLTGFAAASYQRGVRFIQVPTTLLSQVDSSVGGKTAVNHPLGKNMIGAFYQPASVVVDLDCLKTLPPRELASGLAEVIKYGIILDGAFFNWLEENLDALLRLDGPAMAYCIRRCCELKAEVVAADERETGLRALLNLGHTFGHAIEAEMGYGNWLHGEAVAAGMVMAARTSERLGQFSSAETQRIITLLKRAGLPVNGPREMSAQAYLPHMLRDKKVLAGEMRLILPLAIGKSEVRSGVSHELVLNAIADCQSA

Assays:
[1] = target: T1, 3-dehydroquinate synthase (Escherichia coli (strain K12), UniProt P07639); assay: Rate constant against 3-dehydroquinate synthase
[2] = target: T1, 3-dehydroquinate synthase; assay: Association rate constant against 3-dehydroquinate synthase

## O=C(O)[C@@]1(O)CC[C@H](O)[C@@H](CP(=O)(O)O)C1
[1]
  kon (M-1-s-1): 1500 M⁻¹ s⁻¹
[2]
  koff: 0.00032 s⁻¹
